target: Recombinant human cathepsin S (CatS) (Homo sapiens, UniProt P25774); experiment: Cathepsin S Inhibition Assay; assay type: biochemical; conditions: Table 1; 100 mM sodium acetate pH 5.0, 1 mM DTT, 100 mM NaCl; 20 μM substrate

Protein sequences, listed by entry. Tags and fused reporters are not part of them. Residues count along the entry.
UniProt P25774, 115-331 limits assumed: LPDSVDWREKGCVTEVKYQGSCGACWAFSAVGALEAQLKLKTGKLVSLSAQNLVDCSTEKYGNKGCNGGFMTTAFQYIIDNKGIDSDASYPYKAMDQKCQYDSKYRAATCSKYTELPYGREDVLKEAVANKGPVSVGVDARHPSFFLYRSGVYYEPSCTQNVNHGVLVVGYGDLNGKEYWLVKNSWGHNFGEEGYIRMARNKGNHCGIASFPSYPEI

Row | SMILES | IC50 [µM]
1 | CS(=O)(=O)N1CCc2c(c(-c3ccc(C(F)(F)F)cc3)nn2CCCN2CCC(N3C(=O)Cc4ccccc43)CC2)C1 | 0.03
2 | CS(=O)(=O)N1CCc2c(c(-c3ccc(C(F)(F)F)cc3)nn2CC(O)CN2CCC(N3C(=O)Cc4cc(Cl)ccc43)CC2)C1 (centres unmarked) | 0.03
3 | O=C1COc2ccccc2N1C1CCN(CC(O)Cn2cc(-c3cnccn3)c(-c3ccc(C(F)(F)F)cc3)n2)CC1 (centres unmarked) | 0.78

same assay, conditions: Table 2; 100 mM sodium acetate pH 5.0, 1 mM DTT, 100 mM NaCl; 20 μM substrate

Row | SMILES | IC50 [µM]
4 | CS(=O)(=O)N1CCc2c(c(-c3ccc(C(F)(F)F)cc3)nn2CC(O)CN2CCC(N3C(=O)COc4ccccc43)CC2)C1 (centres unmarked) | 0.02
5 | CS(=O)(=O)N1CCc2c(c(-c3ccc(C(F)(F)F)cc3)nn2CCCN2CCC(N3C(=O)NCc4ccccc43)CC2)C1 | 0.02
6 | CS(=O)(=O)N1CCc2c(c(-c3ccc(C(F)(F)F)cc3)nn2CCCN2CCC(N3C(=O)Cc4ccc(Cl)cc43)CC2)C1 | 0.04

same assay, conditions: Table 3; 100 mM sodium acetate pH 5.0, 1 mM DTT, 100 mM NaCl; 20 μM substrate

Row | SMILES | IC50 [µM]
7 | NC(=O)N1CCc2c(c(-c3ccc(Cl)c(Cl)c3)nn2CCCN2CCC(N3C(=O)Cc4cc(Cl)ccc43)CC2)C1 | 0.06
8 | CS(=O)(=O)N1CCc2c(c(-c3ccc(C(F)(F)F)cc3)nn2CCCN2CCC(N3C(=O)Cc4ccccc43)CC2)C1 | 0.04
9 | CC(=O)N1CCc2c(c(-c3ccc(C(F)(F)F)cc3)nn2CCCN2CCC(N3C(=O)COc4cccc(C)c43)CC2)C1 | 0.28
10 | CC(=O)N1CCc2c(c(-c3ccc(Cl)c(C)c3)nn2CC(O)CN2CCC(N3C(=O)Cc4cc(Cl)ccc43)CC2)C1 (centres unmarked) | 0.14
11 | O=C1CCc2ccccc2N1C1CCN(CCCn2nc(-c3ccc(C(F)(F)F)cc3)c3c2CCNC3)CC1 | 1.4
12 | CC(=O)N1CCc2c(c(-c3ccc(Br)cc3)nn2CC(O)CN2CCC(N3C(=O)Cc4ccccc43)CC2)C1 (centres unmarked) | 0.15
13 | CS(=O)(=O)N1CCc2c(c(-c3ccc(Br)cc3)nn2CCCN2CCC(N3C(=O)CCc4ccccc43)CC2)C1 | 0.07
14 | O=C1NCc2ccccc2N1C1CCN(CCCn2nc(-c3ccc(C(F)(F)F)cc3)c3c2CCNC3)CC1 | 1.8
15 | CC(=O)N1CCc2c(c(-c3ccc([N+](=O)[O-])cc3)nn2CC(O)CN2CCC(N3C(=O)Cc4ccccc43)CC2)C1 (centres unmarked) | 0.15
16 | CC(C)(C)OC(=O)N1CCc2c(c(-c3ccc(Br)cc3)nn2CC(O)CN2CCC(N3C(=O)CCc4ccccc43)CC2)C1 (centres unmarked) | 1.1
17 | CC(=O)N1CCc2c(c(-c3ccc(Cl)c(C)c3)nn2CC(O)CN2CCC(N(C(=O)c3ccccc3)c3cccc(Cl)c3)CC2)C1 (centres unmarked) | 0.64
18 | CCS(=O)(=O)c1ccc2c(c1)N(C1CCN(CCCn3nc(-c4ccc(Br)cc4)c4c3CCN(C(=O)OC(C)(C)C)C4)CC1)C(=O)CO2 | 1.1
19 | CC(=O)N1CCc2c(c(-c3ccc(Cl)c(C)c3)nn2CC(O)CN2CCC(N3C(=O)Cc4ccccc43)CC2)C1 (centres unmarked) | 0.09
20 | Cc1cccc2c1N(C1CCN(CCCn3nc(-c4ccc(Br)cc4)c4c3CCN(C(N)=O)C4)CC1)C(=O)CO2 | 0.09
21 | CS(=O)(=O)N1CCc2c(c(-c3ccc(C(F)(F)F)cc3)nn2CC(O)CN2CCC(N3C(=O)OCc4ccccc43)CC2)C1 (centres unmarked) | 0.09
22 | CS(=O)(=O)N1CCc2c(c(-c3ccc(Br)cc3)nn2CCCN2CCC(N3C(=O)NCc4ccccc43)CC2)C1 | 0.09
23 | CS(=O)(=O)N1CCc2c(c(-c3ccc(C(F)(F)F)cc3)nn2CCCN2CCC(N3C(=O)COc4ccc(Cl)cc43)CC2)C1 | 0.13
24 | Cc1cc(-c2nn(CC(O)CN3CCC(N4C(=O)Cc5ccccc54)CC3)c3c2CN(S(C)(=O)=O)CC3)ccc1Cl (centres unmarked) | 0.04
25 | CC(C)(C)OC(=O)N1CCc2c(c(-c3ccc(C(F)(F)F)cc3)nn2CC(O)CN2CCC(N3C(=O)CCc4ccccc43)CC2)C1 (centres unmarked) | 0.84
26 | CCS(=O)(=O)c1ccc2c(c1)N(C1CCN(CCCn3nc(-c4ccc(Br)cc4)c4c3CCN(C(N)=O)C4)CC1)C(=O)CO2 | 0.06
